These results are taken from publication PMC11219945, “Assessing genotoxic effects of chemotherapy agents by a robust in vitro assay based on mass spectrometric quantification of γ-H2AX in HepG2 cells” (Frontiers in Pharmacology, 2024).

The conditions of data set [1]: combination of in vitro mouse lymphoma, chromosomal aberration, and micronucleus tests; cited from earlier work.
In the next data set the test system is γ-H2AX in HepG2 cells. Conditions: human, 24 h. On the procedure: Human hepatoblastoma cells (HepG2) were cultivated in DMEM medium under standard conditions (37°C in a 5% CO2 atmosphere). The culturing medium was added with 10% FBS, 100 U/mL penicillin and 100 μg/mL streptomycin.
In accordance to our previous study, cells were exposed to the chemotherapeutic agent by adding a proper volume of chemotherapeutic agent stock solution to the fresh medium without serum. Controls were treated with DMSO (0.1%) in medium. Independent biological experiments with three technical replicates were conducted.
The cells were then treated with different chemotherapy agents in serum-free medium. For a dose-effect relationship experiment, cells were exposed to each agent at either of three concentrations with a 10-fold increase for 24 h. For the time-effect relationship experiment of nine tested chemotherapy agents, cells were exposed to selected chemotherapy agents at 0.5, 1, 2, 4, 8, 12, and 24 h, with the concentration of 100 μM. Independent biological experiments with three technical replicates were performed.
The quantification of γ-H2AX was carried out according to the previous report ([Qu et al., 2021]). […] After nuclear isolation, histone extraction, trypsin digestion in the solution, and desalting, the peptide sample from the carboxy terminus of H2AX was analyzed. […]

Molecules are shown by their SMILES.

Regarding `CCc1c2c(nc3ccc(OC(=O)N4CCC(N5CCCCC5)CC4)cc13)-c1cc3c(c(=O)n1C2)COC(=O)[C@]3(O)CC` [Irinotecan], in data set [1], the “In vitro assays (genotoxicity)” value was “+”. Further, in the data set with γ-H2AX in HepG2 cells, the “maximum γ-H2AX value within the selected concentration range” value amounted to 17.5.
